Results published in ChEMBL document CHEMBL1147784, “Crystal structure of human ERK2 complexed with a pyrazolo[3,4-c]pyridazine derivative” (Bioorg Med Chem Lett, 2006).

Protein sequences, listed by entry. Tags and fused reporters are not part of them.
UniProt P28482, whole entry: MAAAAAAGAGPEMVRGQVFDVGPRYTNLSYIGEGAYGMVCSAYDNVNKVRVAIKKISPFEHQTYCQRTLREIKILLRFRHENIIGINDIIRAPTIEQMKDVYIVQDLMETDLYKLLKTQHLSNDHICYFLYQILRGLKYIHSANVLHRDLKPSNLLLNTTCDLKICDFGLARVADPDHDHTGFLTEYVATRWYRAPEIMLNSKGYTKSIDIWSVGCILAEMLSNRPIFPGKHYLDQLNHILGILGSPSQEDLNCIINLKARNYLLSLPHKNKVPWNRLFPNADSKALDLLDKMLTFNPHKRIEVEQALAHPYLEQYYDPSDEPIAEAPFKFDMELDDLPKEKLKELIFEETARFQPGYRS

Target: Mitogen-activated protein kinase 1 (Homo sapiens, UniProt P28482)
Assay: Inhibitory activity against human ERK2

IC50: 1900 nM
SMILES: Nc1n[nH]c2nnc(-c3c(-c4ccccc4)nn4ccccc34)cc12
